Laboratory results: ChEMBL document CHEMBL1130279 (J Med Chem, 1997)

Protein sequences, listed by entry. Tags and fused reporters are not part of them.
UniProt P23977, whole entry: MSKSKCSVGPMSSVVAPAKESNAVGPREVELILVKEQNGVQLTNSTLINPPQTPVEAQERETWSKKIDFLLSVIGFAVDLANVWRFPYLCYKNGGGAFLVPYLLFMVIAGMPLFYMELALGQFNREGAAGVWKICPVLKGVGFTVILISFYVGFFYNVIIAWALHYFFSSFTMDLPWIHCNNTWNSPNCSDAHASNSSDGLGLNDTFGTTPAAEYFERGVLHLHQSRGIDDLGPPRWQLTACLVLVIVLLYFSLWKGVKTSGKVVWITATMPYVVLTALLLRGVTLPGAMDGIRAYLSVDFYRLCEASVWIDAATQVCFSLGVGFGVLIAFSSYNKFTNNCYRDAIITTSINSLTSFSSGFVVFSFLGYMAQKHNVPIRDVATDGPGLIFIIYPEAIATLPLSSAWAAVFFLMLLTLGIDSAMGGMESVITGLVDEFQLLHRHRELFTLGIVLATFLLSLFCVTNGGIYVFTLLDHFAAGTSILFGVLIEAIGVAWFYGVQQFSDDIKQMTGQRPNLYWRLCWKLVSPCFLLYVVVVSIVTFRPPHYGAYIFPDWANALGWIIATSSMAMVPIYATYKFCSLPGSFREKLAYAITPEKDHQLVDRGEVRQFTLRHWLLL

Target: Sodium-dependent dopamine transporter (Rattus norvegicus, UniProt P23977)
Experiment: Displacement of [3H]WIN-35428 from dopamine transporter in rat caudate putamen tissue
Assay type: tissue-based
Method in brief: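 Compounds were tested as oxalate salts unless noted; some were hydrochloride or fumarate. Values are mean ± SEM of three experiments, each run in triplicate.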

For `COC(=O)C[C@@H]1C2C[C@H](Cc3ccccc3)C(C[C@@H]1Cc1ccccc1)N2C` (stereo partly specified), the Ki was 1560 nM.
